Measurements published in ChEMBL document CHEMBL1149096 (J Med Chem, 2004).

Sequences of proteins named here, by UniProt entry; tags and fusion partners are left off.
UniProt P97266, whole entry: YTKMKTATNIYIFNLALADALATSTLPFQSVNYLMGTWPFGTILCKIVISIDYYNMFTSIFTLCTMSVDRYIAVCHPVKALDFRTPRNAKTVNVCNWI
UniProt P33535, whole entry: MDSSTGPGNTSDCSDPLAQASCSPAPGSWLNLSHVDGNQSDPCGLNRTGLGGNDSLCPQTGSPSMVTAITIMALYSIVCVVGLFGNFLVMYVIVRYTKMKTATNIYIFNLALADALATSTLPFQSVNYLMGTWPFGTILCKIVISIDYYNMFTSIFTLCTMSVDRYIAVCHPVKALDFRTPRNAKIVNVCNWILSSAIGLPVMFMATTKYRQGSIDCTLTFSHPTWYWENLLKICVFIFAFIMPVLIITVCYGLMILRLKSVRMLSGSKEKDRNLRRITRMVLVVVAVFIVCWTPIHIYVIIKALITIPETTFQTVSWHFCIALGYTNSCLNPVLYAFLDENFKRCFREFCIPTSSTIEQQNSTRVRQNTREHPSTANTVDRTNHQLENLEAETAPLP

Tests used:
[1] = biological target: Mu-type opioid receptor (Cavia porcellus) (UniProt P97266); conditions: Ileum, filed as agonist
Mu-type opioid receptor = Mu-type opioid receptor (Rattus norvegicus, UniProt P33535); assay: Binding affinity at Opioid receptor mu 1 by displacement of [3H]DAMGO in rat brain membrane; type: cell membranes

SMILES	Ke [1]	Ki (Mu-type opioid receptor)
Oc1ccc2c3c1O[C@H]1c4ncc(-c5ccc(Cl)cc5)cc4C[C@@]4(O)[C@@H](C2)N(CC2CC2)CC[C@]314	Agonist	
C[C@@H](NC(=O)[C@@H](N)Cc1ccc(O)cc1)C(=O)NCC(=O)N(C)[C@@H](Cc1ccccc1)C(=O)NCCO [DAMGO]		6.1 nM
